Experimental findings from US12162913B2, “Rhipicephalus nicotinic acetylcholine receptor and pest control acting thereon” (priority 2016, dated 2024) are described below.

By UniProt entry, the sequences of proteins in these tests, tags left out.
UniProt A0A223PM17, entry or part of it I539V: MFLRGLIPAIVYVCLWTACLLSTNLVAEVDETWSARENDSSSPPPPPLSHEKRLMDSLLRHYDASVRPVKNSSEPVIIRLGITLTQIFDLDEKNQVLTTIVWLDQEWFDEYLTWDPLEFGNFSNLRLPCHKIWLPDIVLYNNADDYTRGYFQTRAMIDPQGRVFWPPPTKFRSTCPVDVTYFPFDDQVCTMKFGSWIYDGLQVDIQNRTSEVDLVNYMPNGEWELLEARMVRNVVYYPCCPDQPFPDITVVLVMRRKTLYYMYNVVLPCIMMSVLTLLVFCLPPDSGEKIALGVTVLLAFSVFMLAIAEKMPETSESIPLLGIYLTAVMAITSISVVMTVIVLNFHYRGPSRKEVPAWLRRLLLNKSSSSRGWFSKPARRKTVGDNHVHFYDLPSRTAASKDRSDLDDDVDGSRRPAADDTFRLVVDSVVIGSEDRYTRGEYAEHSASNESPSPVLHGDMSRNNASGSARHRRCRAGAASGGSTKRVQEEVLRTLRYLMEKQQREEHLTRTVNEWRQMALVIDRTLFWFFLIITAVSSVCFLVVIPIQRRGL

For this test, the target named is R. microplus nAChRα5 (Rmα5) homopentamers (Rhipicephalus microplus, UniProt A0A223PM17, I539V). The test can be described thus: cell-based. As to the method:
The plasmids containing the sequences of choice were linearized using BeuI (Spel) FastDigest (ThermoFisher) restriction enzyme for 30 min at 37°, and an aliquot run on an agarose gel to check for complete linearization. The plasmid DNA was phenol:chloroform purified and ethanol precipitated. The pellet was re-suspended in deionized water. Capped RNA was synthesized using mMessage mMachine T7 kit from 1 μg linearized plasmid DNA, the sample phenol:chloroform purified and isopropanol precipitated. The pellet was re-suspended in deionized water to a concentration of 500 ng/μl, analysed on an agarose gel for integrity and stored at −80° C. until further use.
Xenopus laevis oocytes were purchased as whole ovaries from the European Xenopus Resource Centre (University of Portsmouth), delivered in less than 24 h in Modified Barth's Saline (MBS) on wet ice. Upon arrival, the oocytes were treated with 2 mg/ml collagenase type I (Sigma-Aldrich) in calcium-free Barth's solution (NaCl 88 mM, Tris-HCl 15 mM, NaHCO32.4 mM, MgCl2 0.82 mM, KCl 1 mM, pH 7.5) for 30 min at room temperature. […] Following ligand application, the current required to maintain the membrane potential at −60 mV was measured and used for subsequent data analysis. […]

What is called EC50 is the concentration that produces a half-maximal response. Low values mean an effect from little substance, high ones a need for much substance. On to `CC(=O)OCC[N+](C)(C)C` [ACh, acetylcholine], for which the EC50 turned out to be 108 ± 27 µM.
